Measured values from patent US20080213836A1.

How the values were obtained:
[1] = target: Medaka EP-1 serine protease domain (wild-type) (Oryzias latipes (Japanese Medaka)); assay: cell-based or functional assay
[2] = target: Medaka EP-2 serine protease domain (Oryzias latipes (Japanese Medaka)); assay: cell-based or functional assay

Inhibition (%) of GD4K-βNA hydrolysis at 0.01 mg/ml [1]: 0%
Inhibition (%) of GD4K-βNA hydrolysis at 0.01 mg/ml [2]: 5%
Substance: Aprotinin (from UniProt P00974 36-93)
